Several values for one entry are separate records, joined by “and”; a condition that tells them apart may be missing. Equal entries are not always repeated. The list shows a part of the results, in another mix than the full data. Activity calls are given as the source filed them. Calls follow the shape of the dose curve; as a rule, active = well fitted activation curve with a large enough effect; inconclusive = small, poorly fitted or top-dose-only effect; inactive = no such curve, though single readings can be large or run the other way.

The test can be described thus: qHTS Multiplex Assay to Identify Dual Action Probes in a Cell Model of Huntington: Cytoprotection (ATP).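 Also: toxic huntingtin expression switched on by the ecdysone agonist tebufenozide; % of control where 0% means no effect; nearly all actives have a fitted effect of over 45% in size.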 As to conditions: PC12 HTT-Q103 induced, ATP luminescence, 40 h; at 56.4 µM (top of the series) unless noted. From the text:
NIH Chemical Genomics Center [NCGC]
NIH Molecular Libraries Probe Production centers Network [MLPCN]
Assay Submitter (PI): Wei Zheng
Huntington's disease is a neurodegenerative disorder caused by a trinucleotide repeat expansion in Exon 1 of the Huntingtin gene. The CAG trinucleotide encodes glutamine and polyglutamine expansions cause cell death in selective areas of the brain. Huntington polyglutamine repeats have the tendency to form aggregates which are observable in later stages of the disease. The exact nature of the aggregates, whether toxic, protective, or insignificant, is unclear.
A stable PC12 cell line containing a gene fusion of Exon 1 of the Huntingtin gene linked to GFP under the control of the inducible ecdysone promoter were used as the cell-based model of Huntington Disease for high throughput screening. Exon 1 of the Huntingtin gene contained an expansion of 103 polyglutamines (Q103) which, when expressed, caused cell death and distinct, bright GFP aggregates. The amount of cell death and the size and intensity of GFP aggregates increased over time and induction level. The cell death were quantified with a measurement of ATP content in the cells. A maximal 40-50% of cell death was observed when the Huntington gene was induced in this cell line.
We optimized this assay in a homogeneous 1536 well format. A quantitative high throughput screen (qHTS) was conducted on the PC12 cells which were induced to express the toxic fusion construct. Small molecules which prevented cell death were identified by using a luminescent ATP quantification method (Perkin Elmer's ATPlite).
PC12 cells stably containing a construct with an ecdysone inducible promoter expressing GFP fused to the exon 1 of HTTQ103 (Huntington protein which containing a 103 ployglutamine expansion) were used.
NCGC Assay Protocol Summary:
Sequence, Parameter, Description
1, Reagent, 5 uL 1500 cells/well 1536 TC treated White clear bottom plate
2, Compound, 23 nL Tebufenozide inducer (100 nM final) to all columns
3, Compound, 23 nL 40 uM to 0.5 nM Libraries
5, Reagent, 5 ul ATPLite cell death assay reagent
6, Detector, 4 sec integration with a Viewlux Luminescent
Media consisted of phenol red free DMEM + 5% equine serum (Hyclone # SH30072.03 ), 5% supplemented Bovine Calf Serum (Hyclone # SH30074.03 ), 1x pen/strep, no G418
Control columns: 1 = DMSO, 2= 2 uM teb dilns (1:1), 4 = 100 nM Teb inducer. Sample columns received 100 nM Teb.
(In general: In qHTS, concentration-response curves come from the screen itself.)
As to `COc1ccc(OP(C)(=O)Nc2ccccn2)cc1` (stereo not given), the cytoprotection (ATP increase) was inactive: 23.2%.
With `CN(C)CCOC(=O)C(O)(c1ccccc1)C1CCCC1` (stereo not given) the figure was inactive: 12.5%; with `O=[N+]([O-])c1cc([N+](=O)[O-])c(Nc2ccccn2)c([N+](=O)[O-])c1`, inactive: -2.92% [at 10 µM]; with `Cc1c(NP(C)(=O)Oc2ccc(C(C)C)cc2)c(=O)n(-c2ccccc2)n1C` (stereo not given), inactive: 9.17%.
The figure for `COc1ccccc1OP(C)(=O)Nc1ccc(C)cc1C` (stereo not given) is inactive: -20.5%; for `CP(=O)(Nc1ccccn1)Oc1ccccc1` (stereo not given) it is inactive: -2.58%; for `CCc1ccc(OP(C)(=O)O)cc1` it is inactive: 5.08%.
With `O=[N+]([O-])[O-].[NH4+]` the figure was inactive: -7.53%; with `O=[N+]([O-])c1ccc2c(c1)C=Nc1ccccc1O2`, inactive: -87.8%.
As to `Cc1cccc(C)c1OP(C)(N)=O` (stereo not given), the cytoprotection (ATP increase) is inactive: 7.16% [at 10 µM].
With `CC(C)(C)c1ccc(OP(C)(=O)Nc2ccc(SC(F)(F)F)cc2)cc1` (stereo not given), the cytoprotection (ATP increase) is inactive: 14.2% [at 10 µM].
With `Cc1ccc(NP(C)(=O)Oc2ccccc2)c(C)c1` (stereo not given) the figure was inactive: 14.1%.
With `COc1ccccc1OP(C)(=O)Nc1ccc(C)cc1` (stereo not given) the figure was inactive: -3.95% [at 10 µM].
For the compound `Cc1cc(C)cc(OP(C)(N)=O)c1` (stereo not given), the cytoprotection (ATP increase) was inactive: -6.66% [at 10 µM].
With `COc1ccc(OP(C)(=O)Nc2cccc(F)c2)cc1` (stereo not given) the figure was inactive: -9.43%; with `COc1ccccc1OP(C)(=O)Nc1cc(Cl)ccc1C` (stereo not given), inactive: 24.9% [at 10 µM].
With `N1=C(c2nnc(-c3nn[nH]n3)nn2)NNN1` the figure was inactive: 9.36% [at 10 µM]; with `CP(=S)(Nn1cnnc1)Oc1ccccc1` (stereo not given), inactive: 0.434%.
The figure for `CP(=O)(Nc1ccccc1Br)Oc1ccccc1` (stereo not given) is inactive: 7.57% [at 10 µM]; for `COc1ccccc1OP(C)(=O)Nc1ccccc1` (stereo not given) it is inactive: 15.2%; for `CP(=O)(Oc1ccccc1)OC(c1ccccc1)C(F)(F)F` (stereo not given) it is inactive: 15.1% [at 10 µM].
Take `Cc1cccc(C)c1OP(C)(=O)Nc1ccc(SC(F)(F)F)cc1` (stereo not given): the cytoprotection (ATP increase) is inactive: 26.4% [at 10 µM].
The figure for `CP(=O)(Nc1ccc(SC(F)(F)F)cc1)Oc1ccc(Cl)cc1` (stereo not given) is inactive: -3.36% [at 10 µM].
The figure for `Cc1cc(C)cc(OP(C)(=O)Nc2ccc(SC(F)(F)F)cc2)c1` (stereo not given) is inactive: -24.6% [at 10 µM].
With `CCc1ccc(OP(C)(=O)N2CCN(c3ccc([N+](=O)[O-])cc3)CC2)cc1` (stereo not given) the figure was inactive: 5.97% [at 10 µM].
Turning to `CP(=O)(NC(=O)Nc1ccccc1)Oc1ccccc1` (stereo not given), the cytoprotection (ATP increase) is inactive: 18.7%.
Turning to `CN(C)CCS`, the cytoprotection (ATP increase) is inactive: 3.02%.
With `CCOC(=O)c1ccc(NP(C)(=O)Oc2ccc(OC)cc2)cc1` (stereo not given) the figure was inactive: 33.5% [at 10 µM].
With `CCOP(C)(=S)SCC(=O)NC(C)C(=O)O` (stereo not given) the figure was inactive: -23.6%; with `CP(=O)(Nc1ccccn1)Oc1ccc(Cl)cc1` (stereo not given), inactive: -14.1%.
With `O=[N+]([O-])c1cc([N+](=O)[O-])c(-n2nnc3ccccc32)c([N+](=O)[O-])c1` the figure was inactive: -8.97% [at 10 µM]; with `Cc1nc2ccc3ccccc3c2s1.O=[N+]([O-])c1cc([N+](=O)[O-])c(O)c([N+](=O)[O-])c1`, inactive: -3.4%; with `O=[N+]([O-])c1cc([N+](=O)[O-])c(Nc2nnnn2CCO)c([N+](=O)[O-])c1`, inactive: -2.09% [at 10 µM].
On to `COc1ccccc1OP(C)(=O)Nc1c(C)cccc1C` (stereo not given), for which the cytoprotection (ATP increase) is inactive: 0.801%.
Regarding `CN1CCCCC1COC(=O)C1(O)c2ccccc2CCc2ccccc21` (stereo not given), the cytoprotection (ATP increase) is inactive: 5.93% [at 0.074 µM].
The figure for `CCCOc1ccc(NP(C)(=O)Oc2ccc(Cl)cc2)cc1` (stereo not given) is inactive: -8.71% [at 10 µM].
On to `O=[N+]([O-])c1cccc([N+](=O)[O-])c1`, for which the cytoprotection (ATP increase) is inactive: 11% and inactive: -25%.
Take `CC1=NCCc2c1[nH]c1ccccc21.O=[N+]([O-])c1cc([N+](=O)[O-])c(O)c([N+](=O)[O-])c1`: the cytoprotection (ATP increase) was inactive: -7.25% [at 10 µM].
The figure for `Cc1ccc([N+](=O)[O-])cc1[N+](=O)[O-]` is inactive: -2.04%; for `COc1ccccc1OP(C)(=O)Nc1cccc(Br)c1` (stereo not given) it is inactive: -25.8% [at 10 µM].
Consider `CCOC(=O)c1ccc(NP(C)(=O)Oc2cc(C)cc(C)c2)cc1` (stereo not given), for which the cytoprotection (ATP increase) was inactive: 14.2% [at 10 µM].
With `Cc1cc(C)cc(OP(C)(=O)Nc2ccc(C)cc2C)c1` (stereo not given) the figure was inactive: 5.42% [at 10 µM].
The figure for `Cc1ccc(C)c(NP(C)(=O)Oc2ccccc2)c1` (stereo not given) is inactive: -6.81%; for `CP(=O)(Nc1cccc(Br)c1)Oc1ccccc1` (stereo not given) it is inactive: 42.5% [at 10 µM]; for `Cc1cc(C)cc(OP(C)(=O)Nc2ccccn2)c1` (stereo not given) it is inactive: 1.93%.

The values are drawn from PubChem BioAssay AID1471 (National Center for Advancing Translational Sciences (NCATS), 2008).
